Measured values: patent US4053604A (priority 1975, dated 1977)

Assay: double-blind cross-over neuroleptanesthesia study in dogs (neuroleptic, fentanyl, nitrous oxide-oxygen)
Conditions: for Average Score Neuroleptanesthesia, Average / Extubation Time, Average / Intubation Time, Average / Duration of Anesthesia Time, Average: average of dogs; for Average Score Neuroleptanesthesia, Average: higher score = better; for Average Score Neuroleptanesthesia, Average / Duration of Anesthesia Time, Average: neuroleptic 200 μg/kg i.v.; for Extubation Time, Average / Intubation Time, Average: neuroleptic 200 μg/kg i.v. + fentanyl + N2O-O2; for Duration of Anesthesia Time, Average: time animals regained righting reflex
[1] = versus droperidol (FIGS. 4 and 5), in words

Row | SMILES | Average Score Neuroleptanesthesia, Average | Extubation Time, Average [min] | Intubation Time, Average [min] | Duration of Anesthesia Time, Average [min] | effectiveness in inducing neurolepsy and in supplementing nitrous oxide anesthesia (200 μg/kg intravenously, versus droperidol at the same dose, in words) | Changes in pulse rate [1] | Changes in rectal temperature [1] | Changes in respiratory rate [1]
1 | O=C(CCCN1CC=C(n2c(=O)[nH]c3ccccc32)CC1)c1ccc(F)cc1 [droperidol, reference compound] | 3.3 | 78.6 | 20.21 | 79.5 | – | – | – | –
2 | CC(C)[C@@]1(O)CCN2C[C@@H]3c4ccccc4CCc4cccc(c43)[C@H]2C1 [listing 1 of 2 here] | 3.2 | 77.0 | 20.57 | 78.0 | as effective as droperidol | – | – | –
3 | CC(C)[C@@]1(O)CCN2C[C@@H]3c4ccccc4CCc4cccc(c43)[C@H]2C1 [listing 2 of 2 here] | – | – | – | – | – | not statistically different | not statistically different | not statistically different
